## Ab-14 light chain CDR variants: yeast mating affinities

Antigen: PDVDLGDISGINAS, a 14-residue peptide of the SARS-CoV-2 spike HR2 region.

The variants keep the heavy chain, the linker and the frameworks of Ab-14 (scFv order VH, three GGGGS repeats, VL).
VH: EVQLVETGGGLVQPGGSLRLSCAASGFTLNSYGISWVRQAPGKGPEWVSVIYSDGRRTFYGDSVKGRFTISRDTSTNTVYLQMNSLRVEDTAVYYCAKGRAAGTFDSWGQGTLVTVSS
VL: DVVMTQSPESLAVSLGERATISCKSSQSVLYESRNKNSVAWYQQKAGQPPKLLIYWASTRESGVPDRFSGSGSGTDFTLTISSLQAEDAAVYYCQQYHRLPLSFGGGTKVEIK

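The parent was found by panning a naive human phage display library on the peptide. Designed CDR sequences, proposed from the first random library and measured here. Several design methods are mixed in this list. Affinity was read by AlphaSeq, a pooled yeast mating assay with surface-displayed partners. After mating in shaken culture at 30 °C for 16 h, diploids were selected and their barcode pairs sequenced. The ratio of observed to expected reads was calibrated, replicate by replicate, on BCL2-family standards whose Kd was known from biolayer interferometry. The assay was run in six technical replicates.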

Sequences are complete VL domains. Variants here have at most six changes. Kd is apparent (estimated from mating counts) and averaged on the log scale over replicates with a signal. Smaller is tighter. "nd" means that the variant was in the library but no mating with the target was seen in any replicate; the authors take this as a sign of poor binding, and no number exists. The parent sequence was in this pool as ten entries: three were never detected, three once, and four in most replicates, with averages from 2.2 nM to 240 nM. Values of this round are not directly comparable with the first-round values of the same sequences. The authors averaged sequences with at least three values out of six and counted those with two or fewer as poor binders. Three control strains display no target. For all light chain designs, 4% of the pairings with them gave a signal, with a median of 430 nM and one signal in twenty below 38 nM, so weak values seen in few replicates may be background.

With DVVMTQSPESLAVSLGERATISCKDSQSVLYESRNKNNVAWYQQKAGQPPKLLIYWASTRESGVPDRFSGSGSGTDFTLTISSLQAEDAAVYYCQQYIRLPLSFGGGTKVEIK the result was nd (0 of 6 replicates). With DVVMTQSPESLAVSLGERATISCESSQSVLYESRNKNGVAWYQQKAGQPPKLLIYAASTRESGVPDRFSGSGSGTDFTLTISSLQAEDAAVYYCQQEHRLPLSFGGGTKVEIK the result was nd (0 of 6 replicates). For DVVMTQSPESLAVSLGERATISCKSLQSVLYESRNKNSVAWYQQKAGQPPKLLIYHKRTREDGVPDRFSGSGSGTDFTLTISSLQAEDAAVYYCQQYHRLPLSFGGGTKVEIK, the assay gave 30 nM (1 of 6 replicates). The variant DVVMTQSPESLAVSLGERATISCKLSQSVLGGSRNKNSVAWYQQKAGQPPKLLIYHASTRESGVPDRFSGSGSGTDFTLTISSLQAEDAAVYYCQQYHRLPLYFGGGTKVEIK gave 3.7 nM (6 of 6 replicates). The variant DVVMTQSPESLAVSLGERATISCKSSQSVQYESRNKNSVAWYQQKAGQPPKLLIYWASTRWKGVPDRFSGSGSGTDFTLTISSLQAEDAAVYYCQQYHWLPLSFGGGTKVEIK gave nd (0 of 6 replicates). The variant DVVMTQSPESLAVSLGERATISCKVSQSPLYESRNKNSVAWYQQKAGQPPKLLIYDASTRESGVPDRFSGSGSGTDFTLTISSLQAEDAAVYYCQQYHRLPLSFGGGTKVEIK gave 360 pM (6 of 6 replicates).

The variant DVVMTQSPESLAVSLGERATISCKCSQSVLYESRNKNSVAWYQQKAGQPPKLLIYHASTRGSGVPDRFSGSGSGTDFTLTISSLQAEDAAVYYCQQYHRLPLSFGGGTKVEIK gave 220 pM (6 of 6 replicates). The variant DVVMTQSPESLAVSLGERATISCKSSQSVLYESRNKNSVAWYQQKAGQPPKLLIYGASVREDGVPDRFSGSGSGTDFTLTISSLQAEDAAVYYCQQYHRLPLSFGGGTKVEIK gave 2.1 nM (6 of 6 replicates). The variant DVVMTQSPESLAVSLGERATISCKLEQSHLYESRNKNSVAWYQQKAGQPPKLLIYQASTRESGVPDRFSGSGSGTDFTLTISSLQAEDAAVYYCQQYHRLPLSFGGGTKVEIK gave 720 pM (6 of 6 replicates). For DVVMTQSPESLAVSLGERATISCGSMQSVLYEMRNKNSVAWYQQKAGQPPKLLIYRASTRESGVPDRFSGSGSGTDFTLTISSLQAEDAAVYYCQQYHRLPLSFGGGTKVEIK, the assay gave 22 nM (1 of 6 replicates). For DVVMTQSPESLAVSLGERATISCKVSPSELYESRNKNSVAWYQQKAGQPPKLLIYEASTRESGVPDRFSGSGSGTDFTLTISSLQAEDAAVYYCQQYHRLPLSFGGGTKVEIK, the assay gave 650 pM (6 of 6 replicates). The variant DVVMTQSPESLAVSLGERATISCKVSQSVLQESRNKNSVAWYQQKAGQPPKLLIYWASTRESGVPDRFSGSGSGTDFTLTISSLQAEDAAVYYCQQMHHLPLSFGGGTKVEIK showed 1.3 µM (1 of 6 replicates).

The variant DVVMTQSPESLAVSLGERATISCKSSQSVLDQSRNKNSVAWYQQKAGQPPKLLIYDASTRESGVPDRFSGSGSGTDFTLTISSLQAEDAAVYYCQQYHRLPLSFGGGTKVEIK gave 2.0 nM (6 of 6 replicates). The variant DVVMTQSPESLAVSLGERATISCKLSQSHLYESRNKNSVAWYQQKAGQPPKLLIYNASTREKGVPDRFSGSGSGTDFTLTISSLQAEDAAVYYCQQYHRLPLSFGGGTKVEIK gave 2.1 nM (6 of 6 replicates). The variant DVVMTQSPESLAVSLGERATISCKLSQSVLYESRNKNSVAWYQQKAGQPPKLLIYNAETRESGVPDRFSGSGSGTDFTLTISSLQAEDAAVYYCQQYHRLPLSFGGGTKVEIK showed 830 pM (6 of 6 replicates). With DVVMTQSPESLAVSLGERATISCKWSQAFLYESRNKNSVAWYQQKAGQPPKLLIYDANTRESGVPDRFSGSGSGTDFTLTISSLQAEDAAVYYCQQYHRLPLSFGGGTKVEIK the result was 760 pM (6 of 6 replicates). For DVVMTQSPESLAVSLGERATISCKSSQSVLYESYNKNSVAWYQQKAGQPPKLLIYKASTRESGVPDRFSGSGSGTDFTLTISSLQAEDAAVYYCQQYHRLPLSFGGGTKVEIK, the assay gave 6.1 nM (6 of 6 replicates). For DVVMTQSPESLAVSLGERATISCKSSQSVLYESRNCNSVAWYQQKAGQPPKLLIYWASERESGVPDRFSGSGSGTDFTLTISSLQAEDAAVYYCQQYHRLPLSFGGGTKVEIK, the assay gave 250 nM (6 of 6 replicates).

The variant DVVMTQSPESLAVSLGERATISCKLRQSQNYESRNKNSVAWYQQKAGQPPKLLIYNASTRESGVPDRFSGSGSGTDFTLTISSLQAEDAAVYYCQIYHRLPLSFGGGTKVEIK showed 2.1 nM (6 of 6 replicates). The variant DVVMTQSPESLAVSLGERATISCKLNQSVLYESRMKNSVAWYQQKAGQPPKLLIYGASTRESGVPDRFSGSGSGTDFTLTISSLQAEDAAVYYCQQYHRLPLSFGGGTKVEIK showed 430 pM (6 of 6 replicates).

The 3 strongest on average among those seen in every replicate, once more:

{"VL": "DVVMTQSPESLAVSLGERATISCKCSQSVLYESRNKNSVAWYQQKAGQPPKLLIYHASTRGSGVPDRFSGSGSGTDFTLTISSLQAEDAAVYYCQQYHRLPLSFGGGTKVEIK", "Kd": "220 pM", "detected": "6 of 6"}
{"VL": "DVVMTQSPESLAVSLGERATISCKVSQSPLYESRNKNSVAWYQQKAGQPPKLLIYDASTRESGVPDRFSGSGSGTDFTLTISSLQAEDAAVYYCQQYHRLPLSFGGGTKVEIK", "Kd": "360 pM", "detected": "6 of 6"}
{"VL": "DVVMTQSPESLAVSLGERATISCKLNQSVLYESRMKNSVAWYQQKAGQPPKLLIYGASTRESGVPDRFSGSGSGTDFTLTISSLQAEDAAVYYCQQYHRLPLSFGGGTKVEIK", "Kd": "430 pM", "detected": "6 of 6"}

Data: MIT Lincoln Laboratory AlphaSeq set, Li et al. 2023, doi:10.1038/s41467-023-39022-2, as distributed in FLAb.